# From PubChem BioAssay AID686992 (Broad Institute, 2013)
# Sequences of proteins named here, by UniProt entry; tags and fusion partners are left off. A change or cut given only in a name is not applied to a line headed by its entry.
# UniProt P16581: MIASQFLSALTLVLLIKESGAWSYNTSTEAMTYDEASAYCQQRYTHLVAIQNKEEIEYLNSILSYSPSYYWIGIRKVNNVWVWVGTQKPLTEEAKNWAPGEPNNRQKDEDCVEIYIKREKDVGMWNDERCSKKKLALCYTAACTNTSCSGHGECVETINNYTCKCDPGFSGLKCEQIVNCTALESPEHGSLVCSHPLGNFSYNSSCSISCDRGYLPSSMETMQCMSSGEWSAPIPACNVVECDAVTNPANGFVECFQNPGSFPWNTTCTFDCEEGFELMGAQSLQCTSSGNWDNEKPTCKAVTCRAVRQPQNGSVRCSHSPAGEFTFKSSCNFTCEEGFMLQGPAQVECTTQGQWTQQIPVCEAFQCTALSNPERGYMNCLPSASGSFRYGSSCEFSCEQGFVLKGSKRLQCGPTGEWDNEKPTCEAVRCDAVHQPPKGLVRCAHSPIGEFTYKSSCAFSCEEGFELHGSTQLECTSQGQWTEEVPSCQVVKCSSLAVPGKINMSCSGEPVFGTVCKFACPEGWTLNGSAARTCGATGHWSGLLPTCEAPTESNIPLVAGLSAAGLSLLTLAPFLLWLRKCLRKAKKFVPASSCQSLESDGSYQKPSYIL
# The entries are a selection whose mix differs from that of the whole data set. Activity calls are given as the source filed them.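 Rule for the calls: active = mean E-selectin-positive cell signal at least 10% of the positive control, reached in at least 60% of replicates, without over 20% cell loss; inconclusive = no rule given, readout overlaps actives, possibly toxicity-flagged; inactive = the rest, including those meeting only one limit.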
# Molecular target: E-selectin (Homo sapiens) (UniProt P16581)
# Test: E-selectin induction in HUVECs, primary screen, imaging, HUVEC, immunofluorescence imaging, single point (AID 686992);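 note: signal is the percent of cells scored E-selectin positive by PE staining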
# Settings: at 7.58 µM, stronger effect = higher value, normalized: neutral wells 0, TNF-alpha wells 100
# Outline: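 Read-out basis: % PE-positive cells; Test system: HUVEC primary endothelial cells; Technique: immunofluorescence imaging; Dosing: single-point compound dose.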
row,Compound,activation
1,CCN(N=Nc1nonc1N)c1nonc1N,inactive: -0.0175%
2,CCCC1OP(N)(=O)OCC1CC (centres undefined),inactive: 0.236%
3,O=C(O)c1ccccc1[As](=O)(O)O,inactive: 0.07%
4,CC(=O)Nc1ccc([As](=O)(O)O)cc1,inactive: -0.5%
5,CN(C)P(=O)(N(C)C)n1c(Nc2ccccc2)nnc1-c1ccccc1,inactive: 0.0915%
6,O=P(Nc1nc2ccc(Cl)cc2s1)(c1ccccc1)c1ccccc1,inactive: 6.57%
7,CN(C(=O)Cc1ccc(Cl)c(Cl)c1)[C@H]1CCCC[C@@H]1N1CCCC1,inactive: 1.69%
8,Cc1ccc(NP(=O)(Oc2ccccc2F)Oc2ccccc2F)nc1,inactive: 1.29%
9,Nc1cc(N)c2nonc2c1[N+](=O)[O-],inactive: 0.0885%
10,O=C(NC(Sc1ccncn1)C(Cl)(Cl)Cl)c1ccccc1 (centres undefined),inactive: -0.665%
11,NC(=O)c1cc([N+](=O)[O-])cc([N+](=O)[O-])c1N,inactive: 4.28%
12,Cc1ccc(N/C(=N/P(=O)(N2CCOCC2)N2CCOCC2)N2CCOCC2)cc1,inactive: 6.01%
13,CN(C(=O)Cc1ccc(Cl)c(Cl)c1)[C@H]1CCCC[C@H]1N1CCCC1,inactive: 0.955%
14,Clc1ccc(Cl)c(NC2=NCC(CBr)S2)c1 (centres undefined),inactive: 0.345%
15,C[N+]1=C2C=CC=CC=C2SC12C([N+](=O)[O-])=CC([N+](=O)[O-])=C[C-]2[N+](=O)[O-] (centres undefined),inactive: -0.0585%
16,Nc1ccc([As](=O)(O)c2ccc(N)cc2)cc1,inactive: 3.01%
17,CC(C)c1nc(Nc2ccccc2)n(P(=O)(N(C)C)N(C)C)n1,inactive: 0.021%
18,c1cc(-c2nn[nH]n2)ccc1-c1nn[nH]n1,inactive: -0.293%
19,COc1ccc(C2=NCC(CBr)S2)cc1 (centres undefined),inactive: 9.03%
20,Cc1ccc(NP(=O)(Oc2ccccc2)Oc2ccccc2)nc1,inactive: -2.04%
21,CC(C)(C)C(=O)NC(Sc1ccncn1)C(Cl)(Cl)Cl (centres undefined),inactive: 5.83%
22,O=[N+]([O-])c1ncn(CCn2ncnc2[N+](=O)[O-])n1,inactive: 0.532%
23,O=[N+]([O-])c1cccc(NC2=NCC(CBr)S2)c1 (centres undefined),inactive: -0.149%
24,COC(=O)C1(C)COP(=O)(Nc2ccccc2)OC1 (centres undefined),inactive: 0.031%
25,O=C(O)CNc1ccc([As](=O)(O)O)cc1,inactive: -0.001%

row,Compound,activation
1,O=P1(N(CCCl)CCCl)OCCCS1 (centres undefined),inactive: 0.0545%
2,O=C(Nc1cc([As](=O)(O)O)ccc1O)c1ccccc1,inactive: -1.79%
3,CC(=O)NC(SC(=S)N(C)C)C(Cl)(Cl)Cl (centres undefined),inactive: 2.31%
4,O=[N+]([O-])c1ncn(CCn2cnc([N+](=O)[O-])n2)n1,inactive: 9.73%
5,O=[As](O)(c1ccccc1)c1ccc(O)cc1,inactive: -0.435%
6,C(Cc1nn[nH]n1)Cc1nn[nH]n1,inactive: 1.09%
7,C/C(N)=N\P(=O)(OCc1ccccc1)OCc1ccccc1,inactive: -0.226%
8,Nc1ccc(CCCCOc2ccccc2)cc1,inactive: 0.651%
9,COc1ccc(N)c([N+](=O)[O-])c1[N+](=O)[O-],inactive: -0.303%
10,C[C@H]1OP(=O)(Oc2ccccc2)[C@H](O)[C@H](O)[C@H]1N=[N+]=[N-] (some centres undefined),inactive: -0.0175%
11,COC(=O)C1(C)COP(=O)(NCc2ccccc2)OC1 (centres undefined),inactive: 0.981%
12,N#C/C(=C\c1ccc(N(CCBr)CCBr)cc1)C(N)=O,inactive: 1.3%
13,C[C@@H]1C=CCP(=O)(Oc2ccccc2)O1 (some centres undefined),inactive: -0.085%
14,C[C@H]1OP(=O)(Oc2ccccc2)C[C@@H]2O[C@@H]21 (some centres undefined),inactive: -0.073%
15,Cc1ccccc1CN(C)C(=O)COC(=O)C(O)(c1ccccc1)c1ccccc1,inactive: 2.3%
16,CC(=O)Nc1ccc(Oc2c([N+](=O)[O-])cc([N+](=O)[O-])cc2[N+](=O)[O-])cc1,inactive: 0.223%
17,CC(=O)Nc1ccc([As](=O)(O)O)c(O)c1,inactive: 2.6%
18,CCc1cc(O)c([N+](=O)[O-])c(C)c1[N+](=O)[O-],inactive: -0.355%
19,O=C(OC1CN2CCC1CC2)c1ccccc1 (centres undefined),inactive: -0.036%
20,CN(C)C(=O)Oc1noc2ccccc12,inactive: 0.0945%
21,CC(NC(=O)COC(=O)C(O)(c1ccccc1)c1ccccc1)c1ccccc1 (centres undefined),inactive: 0.518%
22,CCNC(=S)/N=C(\N)N[N+](=O)[O-],inactive: 0.03%
23,NC(=O)Nc1ccc([As](=O)(O)O)cc1,inactive: 0.857%
24,CN(C(=O)Cc1ccc(Cl)c(Cl)c1)[C@H]1CC[C@@]2(CCCO2)C[C@@H]1N1CCCC1,inactive: 0.18%
25,CN(C)C(=O)c1cc([N+](=O)[O-])cc2c1-c1c(cc([N+](=O)[O-])cc1[N+](=O)[O-])C2=O,inactive: -3.59%

row,Compound,activation
1,CN(C(=O)Cc1ccccc1)[C@@H]1CC[C@]2(CCCO2)C[C@H]1N1CCCC1,inactive: -0.0535%
2,N#CCCN(C(=O)COC(=O)C(O)(c1ccccc1)c1ccccc1)c1ccc(F)cc1,inactive: -0.499%
3,O=P(Nc1nccs1)(Oc1ccccc1)Oc1ccccc1,inactive: 1.72%
4,O=C(O)COc1ccc([As](=O)(O)O)cc1[N+](=O)[O-],inactive: 0.646%
5,Nc1ccccc1[As](=O)(O)c1ccccc1,inactive: -0.53%
6,CCCOP(=S)(Nc1nc(N)cc(=O)[nH]1)OCCC,inactive: -0.038%
7,CS(=O)(=O)c1ccc(Cl)c(NC(=O)COC(=O)C(O)(c2ccccc2)c2ccccc2)c1,inactive: -0.597%
8,COc1cc(C(=O)NCC2(N3CCOCC3)CCCCC2)cc(Cl)c1OC(C)C,inactive: -3.97%
9,O=[As](O)(O)c1cccnc1,inactive: -0.21%
10,O=C(OC1CN2CCC1CC2)c1ccc(Cl)cc1 (centres undefined),inactive: -3.09%
11,O=[As](O)(c1cccc(O)c1)c1cccc(O)c1,inactive: 0.158%
12,COc1ccccc1CNC(=O)COC(=O)C(O)(c1ccccc1)c1ccccc1,inactive: -0.335%
13,CN(C(=O)Cc1ccc(Cl)c(Cl)c1)[C@@H]1CCCC[C@H]1N1CCCC1,inactive: 0.089%
14,CC(C)/C=N\N=C(\N)N[N+](=O)[O-],inactive: 3.78%
15,CN(CCCl)Cc1cc(Cl)c(NC2=NCCN2)c(Cl)c1,inactive: 1.18%
16,CCOP(=O)(NC(=NC(C)c1ccccc1)NC(C)c1ccccc1)OCC (centres undefined),inactive: -0.155%
17,CC(C)(C)C(=O)NC(Sc1ncccn1)C(Cl)(Cl)Cl (centres undefined),inactive: -0.0605%
18,O=P1(N(CCCl)CCCl)NCCC(C(F)(F)F)O1 (centres undefined),inactive: 4.62%
19,Cc1ccc(S(=O)(=O)N(CCCN)CCCc2c(C)nc(N)[nH]c2=O)cc1,inactive: -0.176%
20,O=[As](O)(c1cccs1)c1cccs1,inactive: 0.016%
21,Nc1cccc([As](=O)(O)c2ccccc2)c1,inactive: 2.3%
22,Cc1ccc(C(=O)OC2CN3CCC2CC3)cc1 (centres undefined),inactive: 0.368%
23,CCCC1OP(=O)(Nc2ccccc2)OCC1CC (centres undefined),inactive: -0.215%
24,O=C(/C=C/c1ccccc1)OC1CN2CCC1CC2 (centres undefined),inactive: 5.34%
25,CN(C)C1(CNC(=O)c2ccc(S(C)(=O)=O)cc2)CCCCC1,inactive: 1.09%

row,Compound,activation
1,CCOC(=O)Nc1cccc([As](=O)(O)O)c1,inactive: -0.0565%
2,O=[N+]([O-])c1ccc(Nc2ccc(Oc3ccc([N+](=O)[O-])cc3[N+](=O)[O-])cc2)c([N+](=O)[O-])c1,inactive: -0.024%
3,Cc1cc(SC(NC=O)C(Cl)(Cl)Cl)ncn1 (centres undefined),inactive: -0.164%
4,O=C(O)C(O)c1ccc(N(CCCl)CCCl)cc1 (centres undefined),inactive: 0.075%
5,CCOC(=O)Nc1ccc([As](=O)(O)O)c(O)c1,inactive: 0.979%
6,COP(=O)(OC)N1CC1c1ccccc1 (centres undefined),inactive: 1.45%
7,CCOC(=O)c1ccc(NC(=O)C(C)(CCl)SC)cc1 (centres undefined),inactive: 2.1%
8,O=C(OC1CN2CCC1CC2)c1cccc([N+](=O)[O-])c1 (centres undefined),inactive: -0.057%
9,COC(=O)C1(C)COP(=O)(N2CCCC2)OC1 (centres undefined),inactive: 0.089%
10,O=C(Nc1ccncc1[N+](=O)[O-])c1ccc([N+](=O)[O-])cc1[N+](=O)[O-],inactive: 0%
11,O=C(O)C(=O)c1ccc(N(CCCl)CCCl)cc1,inactive: 0.094%
12,COc1ccc(N/C(=N/P(=O)(N2CCOCC2)N2CCOCC2)N2CCOCC2)cc1,inactive: -0.141%
13,Cc1c2c(nc3ccccc13)SC(C(Cl)Cl)C2 (centres undefined),inactive: 1.75%
14,COc1cc(I)ccc1[As](=O)(O)O,inactive: -0.392%
15,O=P1(N(CCCl)CCCl)Nc2ccccc2N1,inactive: -0.489%
16,O=P1(N(CCCl)CCCl)OCCCN1CCCl (centres undefined),inactive: -0.274%
17,CC(C)c1ccc(OP(=O)(Nc2ccccn2)Oc2ccccc2F)cc1 (centres undefined),inactive: 0.135%
18,COC(=O)C1(C)COP(=O)(N2CCCCCC2)OC1 (centres undefined),inactive: 0.086%
19,O=C(OC1CN2CCC1CC2)c1cccc2[nH]cnc12 (centres undefined),inactive: 0.336%
20,COc1cc(C(=O)NCC2(N3CCOCC3)CCCCC2)ccc1OCC(C)C,inactive: -0.285%
21,C[As](=O)(O)c1cccc(C(=O)O)c1,inactive: -0.022%
22,O=[As](O)(c1ccc(O)cc1)c1ccccc1O,inactive: -0.08%
23,Cc1ccc(OP(=O)(Nc2ccc([N+](=O)[O-])cn2)Oc2ccc(C)cc2)cc1,inactive: 0.103%
24,[N-]=[N+]=NC1CCCCC1NC(=O)c1cc([N+](=O)[O-])cc([N+](=O)[O-])c1 (centres undefined),inactive: 0.119%
